Screening data as filed in PubChem BioAssay.
The list is not random: actives were taken first. Their share in the collection is about 16%.
miR-21 reporter: raises the signal of a miR-21 reporter | Potency, µM (highest dose often 38.3 µM), without a hit: at the top dose reporter change, positive = more light | HeLa miR-21 FLuc reporter, luciferase, 48 h | 340,000 tested, under 10 active; active = well fitted rising curve with a large enough effect; inconclusive = small, poorly fitted or top-dose-only effect; inactive = no such curve, though single readings can be large or run the other way;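 further: % of control where 0% means no effect; miR-21 action dims this reporter so a rising signal means less miR-21 action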
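HeLa cells endogenously expressing miR-21, stably carrying CMV-driven firefly luciferase with a downstream miR-21 binding site, 2000 cells/well. Titrations up to approximately 40 uM, 48 hours; luciferase luminescence read.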
uPA surface inh: inhibitors of cell surface uPA generation. cell surface uPA generation assay, qHTS. Potency, µM (top dose mostly 38.3 µM), without a hit: at the top dose activity change, negative = inhibition, hits mostly inhibitors. 0.31% of 330,000 active. AID 540303; active = well fitted inhibition curve with a large enough effect; inconclusive = small, poorly fitted or top-dose-only effect; inactive = no such curve, though single readings can be large or run the other way; tested in mouse RAW 264.7 cells; note: potency is the fitted concentration of half-maximal effect; % is set by controls: 0 for no effect and ±100 for the full control effect; nearly all actives have a fitted effect of over 55% in size
TDP1 inh: TDP1 (human) enzyme inhibition; Q9NUW8; recombinant TDP1, AlphaScreen DNA substrate cleavage; Potency, µM (top dose mostly 130 µM), for the others: at the top dose activity change, negative = inhibition, most hits filed as inhibitors; 0.28% of 350,000 active; AID 485290; note: potency is the fitted concentration of half-maximal effect; % is set by controls: 0 for no effect and ±100 for the full control effect; nearly all actives have a fitted effect of over 40% in size
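Recombinant E. coli-expressed Tdp1 (1 nM) preincubated with compound 15 min at RT, then 5'-biotin/3'-phosphotyrosine-FITC DNA substrate (15 nM) added for 5 min. AlphaScreen beads (10 ug/ml) added, 10 min RT; tyrosine-FITC cleavage read as signal loss.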
TDP1 cell CPT: growth inhibition of DT40 Tdp1-/-;hTDP1 cells with camptothecin (screen for TDP1 inhibitors); chicken DT40 Tdp1-/-;hTDP1 cells + 20 nM CPT, ATP luminescence, 48 h; Potency, µM (highest dose often 46.2 µM), for inactives: top-dose activity change, negative = growth inhibition, actives largely listed as inhibitors; 12% of 420,000 active; AID 686979; note: potency is the fitted concentration of half-maximal effect; % is set by controls: 0 for no effect and ±100 for the full control effect; nearly all actives have a fitted effect of over 55% in size
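Chicken DT40 Tdp1-/- cells stably complemented with human TDP1 were seeded at 400 cells/well in medium containing 20 nM camptothecin, exposed to pin-transferred compounds, and grown at 37 °C for at least 48 hr. Viability was read as ATP luminescence.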
TDP1 cell noCPT: qHTS for Inhibitors of human tyrosyl-DNA phosphodiesterase 1 (TDP1): qHTS in cells in absence of CPT; DT40 Tdp1-/- hTDP1 cells, no CPT, ATP luminescence, 48 h; 15% of 420,000 active; Potency, µM (series often up to 46.2 µM), for inactives: at the top dose activity change, negative = growth inhibition, most hits filed as inhibitors; AID 686978, 2013; note: potency is the fitted concentration of half-maximal effect; % is set by controls: 0 for no effect and ±100 for the full control effect; nearly all actives have a fitted effect of over 55% in size
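Cells were dispensed at 400 per well, compounds added by pin tool, plates incubated ≥48 hr at 37 °C, then CellTiter-Glo added for 30 min at room temperature before luminescence reading. Line: DT40 Tdp1-/- complemented with hTDP1; camptothecin omitted.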
Starred values were filed as active, the others as inactive; ? = inconclusive; · = no result; [ ] = remark or other dose. Unless noted, calls come from the whole dose curve; as a rule, active = well fitted curve in the direction sought with a large enough effect; inconclusive = small, poorly fitted or top-dose-only effect, or another doubt; inactive = no such curve, though single readings can be large; an effect the other way counts as inactive or inconclusive.

SMILES	miR-21 reporter	uPA surface inh	TDP1 inh	TDP1 cell CPT	TDP1 cell noCPT
O=C(Cn1nc(N2CCN(c3ccccc3)CC2)ccc1=O)NCc1ccccc1F	-3%	·	5%	-26%	?
COc1cccc(CNC(=O)Cn2nc(N3CCN(c4ccccc4OC)CC3)ccc2=O)c1	1%	·	5%	18µM*	21µM*
CCOc1ccccc1CNC(=O)Cn1nc(N2CCN(c3ccccc3)CC2)ccc1=O	9%	·	-8%	21µM*	21µM*
COc1ccc(CNC(=O)Cn2nc(N3CCN(c4ccccc4)CC3)ccc2=O)c(OC)c1	9%	·	5%	?	15µM*
Cc1oc(-c2cccc(Cl)c2)nc1CN1CCC(C(=O)NCCCN2CC(C)CC(C)C2)CC1 (configuration not stated)	-5%	1%	3%	?	21µM*
COc1ccc(-c2nc(CN3CCC(C(=O)NCCc4ccccc4)CC3)c(C)o2)cc1OC	-3%	·	3%	-29%	?
COc1ccc(CCNC(=O)C2CCN(Cc3nc(-c4cccc(Cl)c4)oc3C)CC2)cc1OC	19%	-4%	5%	18µM*	21µM*
Cc1oc(-c2cccc(Cl)c2)nc1CN1CCC(C(=O)NCCCN2CCCC2=O)CC1	0%	?	3%	2%	-5%
CS(=O)(=O)N1CCN(c2ccc([N+](=O)[O-])cc2C(F)(F)F)CC1	1%	-3%	6%	?	?
Cc1ccc(C)c2nc(N3CCCC3)c(C#N)cc12	-4%	-5%	2%	-1%	-18%
O=C1NC(c2ccccc2)(C(F)(F)F)SC2=CCCCCN12 (configuration not stated)	1%	2%	3%	-27%	-22%
Cc1ccc(C2(C(F)(F)F)NC(=O)N3CCN=C3S2)cc1 (configuration not stated)	-1%	·	0%	21µM*	?
Nc1nc2c(nc(Br)n2C2CC(O)C(CO)O2)c(=O)[nH]1 (configuration not stated)	·	·	4%	-1%	5%
Nc1nc2c(ncn2C2OC(COC(=O)c3ccccc3)C(OC(=O)c3ccccc3)C2OC(=O)c2ccccc2)c(=O)[nH]1 (configuration not stated)	·	·	4%	?	21µM*
O=c1[nH]cnc2c1ncn2C1CC(O)C(CO)O1 (configuration not stated)	·	·	7%[56.1 µM]	?	?
Nc1nc2c(nnn2C2CC(O)C(CO)O2)c(=O)[nH]1 (configuration not stated)	·	·	·	29µM*	?
CC(C)c1cn(C2OC(COC(=O)c3ccccc3)C(OC(=O)c3ccccc3)C2OC(=O)c2ccccc2)c(=O)[nH]c1=O (configuration not stated)	·	15%	·	·	·
CC(C)C(=O)Nc1nc2c(ncn2[C@H]2CC(O)[C@@H](CO)O2)c(=O)[nH]1 (some centres not stated)	·	·	0%	11µM*	13µM*
Nc1nc2c(ncn2C2C[C@H](O)[C@@H](CO)O2)c(=O)[nH]1 (some centres not stated)	·	-5%	·	10µM*	6.5µM*
Nc1cccc2cccc([N+](=O)[O-])c12	·	-4%	·	-18%	-29%
O=C(/C=C/c1ccc(Cl)c(Cl)c1)N1CCOCC1	-47%	-1%	?	10%	-22%
Cc1ccccc1Nc1nnc(SCc2cc(=O)n3ccsc3n2)s1	-23%	·	5%	?	16µM*
O=c1cc(CSc2nnc(Nc3ccccc3)s2)nc2sccn12	-2%	6%	1%	?	?
COC(C(=O)C(O)C(C)O)C1Cc2cc3cc(OC4CC(OC5CC(O)C(O)C(C)O5)C(O)C(C)O4)c(C)c(O)c3c(O)c2C(=O)C1OC1CC(OC2CC(OC3CC(O)C(OC)C(C)O3)C(O)C(C)O2)C(O)C(C)O1 (configuration not stated)	·	-14%	·	0.1µM*	0.15µM*
CN(C)/C=N/c1nc2nccc(-c3cccc(Cl)c3)n2n1	-7%	-8%	3%	?	-4%

Gathered by group: those above containing sulfur
SMILES	miR-21 reporter	uPA surface inh	TDP1 inh	TDP1 cell CPT	TDP1 cell noCPT
CS(=O)(=O)N1CCN(c2ccc([N+](=O)[O-])cc2C(F)(F)F)CC1	1%	-3%	6%	?	?
O=C1NC(c2ccccc2)(C(F)(F)F)SC2=CCCCCN12 (configuration not stated)	1%	2%	3%	-27%	-22%
Cc1ccc(C2(C(F)(F)F)NC(=O)N3CCN=C3S2)cc1 (configuration not stated)	-1%	·	0%	21µM*	?
Cc1ccccc1Nc1nnc(SCc2cc(=O)n3ccsc3n2)s1	-23%	·	5%	?	16µM*
O=c1cc(CSc2nnc(Nc3ccccc3)s2)nc2sccn12	-2%	6%	1%	?	?

The results go on:
SMILES	miR-21 reporter	uPA surface inh	TDP1 inh	TDP1 cell CPT	TDP1 cell noCPT
Cc1ccccc1NC(=O)c1sc2nc(-c3ccncc3)ccc2c1N	27%	·	·	-88%	16µM*
COc1ccccc1NC(=O)c1sc2nc(-c3ccco3)ccc2c1N	-28%	2%	0%	-16%	?
Nc1c(C(=O)Nc2ccc(Cl)c(C(F)(F)F)c2)sc2nc(-c3ccncc3)ccc12	-8%	·	-2%	?	10µM*
Nc1c(C(=O)Nc2ccccc2)sc2nc(-c3ccco3)ccc12	-21%	0%	1%	23µM*	18µM*
COc1cccc(-c2ccc3c(N)c(C(=O)Nc4ccccc4C)sc3n2)c1	-20%	·	-12%	?	23µM*
COc1cccc(-c2ccc3c(N)c(C(=O)Nc4cc(F)ccc4F)sc3n2)c1	-64%	·	2%	?	?
CCOC(=O)C1CCCN(c2c(NCCN(C)Cc3ccccc3)c(=O)c2=O)C1 (configuration not stated)	-6%	5%	1%	?	-3%
CCN(CC)S(=O)(=O)c1ccc(Cl)c(NC(=O)CSc2cccc[n+]2[O-])c1	-2%	-5%	3%	-2%	-1%
CCOc1ccc(C(CC(=O)O)N2Cc3ccccc3C2=O)cc1OC (configuration not stated)	-1%	·	0%	1%	5%
Nc1c(C(=O)Nc2nc3ccccc3s2)sc2nc(-c3cccs3)ccc12	?	-19%	·	12µM*	21µM*
O=C(Nc1cc(S(=O)(=O)N2CCOCC2)ccc1N1CCOCC1)c1ccc([N+](=O)[O-])s1	·	?	4%	12µM*	7.3µM*
CC(C)NC(=O)c1ccccc1NS(=O)(=O)c1ccc(Br)s1	18%	10%	5%	?	21µM*
O=C(Nc1cc(S(=O)(=O)N2CCOCC2)ccc1N1CCOCC1)c1cc2c(s1)CCC2	3%	-4%	·	-1%	23µM*
Cc1ccc(NC(=O)c2ccccc2NS(=O)(=O)c2ccc(Cl)s2)cc1S(=O)(=O)N1CCOCC1	?	-3%	3%	13µM*	12µM*
O=C(c1ccccc1NS(=O)(=O)c1ccc(Br)s1)N1CCCC1	2%	3%	5%	-9%	-1%
O=S(=O)(Cc1ccccc1)c1nnnn1-c1ccccc1	·	·	6%	·	·
c1ccc(SCCOCCN2CCc3ccccc3C2)cc1	-7%	-3%	3%	?	-24%
C[C@H](CO)N1C[C@H](C)[C@@H](CN(C)C(=O)c2cc(-c3ccccc3)on2)OCc2cn(nn2)CCCC1=O	·	·	·	-2%	13%
